# How the values were obtained:
# Bovine chymotrypsin = Bovine chymotrypsin (Bos taurus, UniProt P00766); test: Serine protease enzyme inhibition assay, chymotrypsin; assay type: biochemical; conditions: read-out: IC50 Chymotrypsin, mean ± S.E.M. (n ≥ 3)
# [1] = system: fMLF/CB-activated neutrophils; test: Elastase release in fMLF/CB-activated neutrophils; conditions: read-out: IC50 HNE (NE activity / elastase release); fMLF/CB-activated human neutrophils
# [2] = system: fMLF/CB-activated neutrophils; test: O2.- generation in fMLF/CB-activated neutrophils (ferricytochrome c reduction); conditions: read-out: IC50 O2^.− generation; fMLF/CB-activated human neutrophils
compound,measurement,setting,value
N#C/C=C1/CCC(O)CC1O[C@@H]1O[C@H](CO)[C@@H](O)[C@H](O)[C@H]1O (stereo partly drawn),IC50,Bovine chymotrypsin,> 30 µM
same,IC50,[1],> 10 µM
same,IC50,[2],> 10 µM

# Reference: publication PMC5041076, “Ilex kaushue and Its Bioactive Component 3,5-Dicaffeoylquinic Acid Protected Mice from Lipopolysaccharide-Induced Acute Lung Injury” (Scientific Reports, 2016)
